Laboratory results taken from PubChem BioAssay AID602405 (Broad Institute, 2012).
The entries are a selection whose mix differs from that of the whole data set. Active and inactive are the calls of the source. Cut-off read from the data, not from the text of the source: active = inhibition above about 16% (passing the limit was not always enough); inconclusive = no clear call, values can overlap the other calls; inactive = below that.

These molecules were tested on UDP-N-acetylbacillosamine N-acetyltransferase PglD (Campylobacter jejuni) (assay: blockers of PglD enzyme activity – biochemical, DTNB colorimetric, single point, primary screen (AID 602405)). Settings: purified PglD enzyme, DTNB colorimetric CoA detection; at 12.5 µM; active compounds read high.

Compound	inhibition
COc1ccccc1OP(C)(=O)Nc1ccc(C)c(C)c1 (stereo unspecified)	inactive: -3.37%
